# Measured values as given in patent US4282232A, “Nitroimidazole radiosensitizers for hypoxic tumor cells and compositions thereof” (priority 1979, dated 1981).
# Tests used:
# [1] = system: Chinese hamster cells line V-79-753 B; experiment: Radiosensitization of hypoxic Chinese hamster cells (Cobalt-60 irradiation, enhancement ratio); type: cell-based; conditions: 1395 rad Cobalt-60
# Method: Asynchronous monolayer cultures of Chinese hamster cells line V-79-753 B were employed in all the experiments. The monolayers were derived from exponentially-growing cultures. Methods of culturing and handling have been reported earlier by Cooke et al, Rad. Res. 65, 152 (1976). The plated cultures were rendered hypoxic in sealed dural containers capable of holding four petri dishes, by purging with nitrogen (oxygen-free grade) for one hour. Irradiation was carried out by using a Cobalt-60 source at a dose rate of approximately 310 rad/min according to the procedure described previously be Cooke et al, supra. A dose of 1395 rad was given to hypoxic cells in glass petri dishes in the presence of a given drug concentration (2000 cells/dish). Cell survival was estimated from unirradiated hypoxic cells exposed to the same drug concentration. Cultures were incubated for 6 days at 37° C. in an atmosphere of 5% CO2; the resulting colonies were fixed in absolute ethanol, stained with methylene blue and counted.
# in vivo = conditions: mouse, ip
# Method: Neurotoxicity in mice was determined using mice of strain BDF1. This was carried out by (1) determining the LD50 of each compound in mice and (2) observing the animals for acute neurotoxic symptoms such as convulsions. The drugs were either solubilized or suspended in normal saline and administered intraperitoneally to groups of 10 mice.
smiles,measurement,setting,value
"COCC(O)Cn1ccnc1[N+](=O)[O-] (centres unmarked) [F, Misonidazole]",Radiosensitization (enhancement ratio at 1mM in chinese hamster cells),[1],2.2
same,LD50 at 24 h,in vivo,1600 mg/kg
